The text below walks through data of US6391870B2, “Pyrrolo [2,1-b][1,3]benzothiazepines with atypical antipsychotic activity” (Sigma-Tau Industrie Farmaceutiche Riunite S.p.A., priority 1998, dated 2002).

Amino acid sequences for entries named in this document (tags omitted).
UniProt P18901, whole entry: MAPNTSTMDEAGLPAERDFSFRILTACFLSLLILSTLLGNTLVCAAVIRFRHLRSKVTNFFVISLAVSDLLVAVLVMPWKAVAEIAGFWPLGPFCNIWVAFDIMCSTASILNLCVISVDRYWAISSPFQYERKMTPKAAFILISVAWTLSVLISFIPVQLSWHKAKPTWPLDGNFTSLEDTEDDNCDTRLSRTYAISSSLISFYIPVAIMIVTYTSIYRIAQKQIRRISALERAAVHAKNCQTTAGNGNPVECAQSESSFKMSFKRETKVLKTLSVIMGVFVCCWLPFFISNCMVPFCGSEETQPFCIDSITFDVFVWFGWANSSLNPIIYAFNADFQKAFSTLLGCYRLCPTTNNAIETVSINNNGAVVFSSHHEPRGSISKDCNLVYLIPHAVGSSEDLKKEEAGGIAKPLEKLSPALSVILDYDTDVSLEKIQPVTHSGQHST
UniProt P14842, whole entry: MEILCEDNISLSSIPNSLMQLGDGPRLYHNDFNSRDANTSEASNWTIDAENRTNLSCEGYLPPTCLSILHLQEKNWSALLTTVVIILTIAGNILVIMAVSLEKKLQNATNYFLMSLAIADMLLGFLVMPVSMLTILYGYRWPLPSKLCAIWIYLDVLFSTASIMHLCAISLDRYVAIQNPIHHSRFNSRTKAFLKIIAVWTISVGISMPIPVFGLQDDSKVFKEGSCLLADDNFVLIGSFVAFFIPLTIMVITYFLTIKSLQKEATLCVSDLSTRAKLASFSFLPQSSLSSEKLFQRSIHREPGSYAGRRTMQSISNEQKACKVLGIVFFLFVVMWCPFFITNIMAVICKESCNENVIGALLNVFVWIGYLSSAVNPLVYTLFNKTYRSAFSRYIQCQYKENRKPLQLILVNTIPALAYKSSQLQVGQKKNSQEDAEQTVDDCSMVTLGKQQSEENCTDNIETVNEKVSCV

As usually defined, the Ki is the dissociation constant of the complex between target and ligand, obtained from inhibition or displacement.

One experiment concerns the target T1, DA-1 receptors (Rattus norvegicus, UniProt P18901).
T1 construct: striatum for DA-1 and DA-2 receptors; from tissue; host or cells: rat striatum membranes
As to the kind of experiment: [3H]SCH 23390 binding to DA-1 receptors (rat striatum). Particulars: for Ki: read-out: D1 affinity Ki.

The target in a further experiment is 5-HT2A receptors (Rattus norvegicus, UniProt P14842). Description: [3H]Ketanserin binding to 5-HT2A receptors (rat cortex). Particulars: read-out: 5HT2A affinity Ki.

The structures appear in SMILES notation. Like-named read-outs stand apart in the source and are kept apart here.

For `CN1CCN(C2Cn3cccc3Sc3ccc(Cl)cc32)CC1` (racemic) [ST1455, (±)-7-chloro-9-(4-methylpiperazin-1-yl)-9,10-dihydropyrrolo[2,1-b][1,3]benzothiazepine], the Ki on DA-1 receptors is 27 ± 10 nM.

As to `CN1CCN(C2Cn3cccc3Sc3ccc(Cl)cc32)CC1` (single isomer, unassigned; (+)) [ST1460, (+)-7-chloro-9-(4-methylpiperazin-1-yl)-9,10-dihydropyrrolo[2,1-b][1,3]benzothiazepine], at DA-1 receptors, the Ki was determined as 16.4 ± 1 nM.

On to `CN1CCN(C2Cn3cccc3Sc3ccc(Cl)cc32)CC1` (single isomer, unassigned) [ST1461], for which the “D1 pKi” value on DA-1 receptors (rat striatum) is 7.66. Also, the Ki on DA-1 receptors (rat striatum, [3H]SCH 23390, average ± standard error) was 22 ± 1.3 nM.

`CN1CCN(C2Cn3cccc3Sc3ccc(F)cc32)CC1` (racemic) [ST1456, (±)-7-fluoro-9-(4-methylpiperazin-1-yl)-9,10-dihydropyrrolo[2,1-b][1,3]benzothiazepine]: the Ki on 5-HT2A receptors is 5.1 nM.
